Each structure is given as a SMILES string.

The subject of assay [1] is primary adult rat DRG neurons. The assay can be described thus: Neurite outgrowth in primary cultures of adult DRG neurons. Type of assay: cell-based. The method, then:
Neurite outgrowth in primary cultures of adult DRG neurons: Primary DRGs neurons were isolated from adult male Sprague Dawley rats and cultured as previously described for mice with modifications.^53 The DRGs were stripped of their roots and collected in Hanks Buffered Salt Solution (HBSS) on ice. DRGs were enzymatically digested and approximately 4000 DRG neurons were plated in each well of a 12-well tissue culture plate (Thermo Fisher Scientific, Waltham, MA, USA). All DRG neurons were cultured at 37° C. in 5% CO2 for 54 h in DMEM/F12 containing 2% B27 and 1% FBS with vehicle or SP163M (0-500 ng/ml) added every 24 h. Primary cultured DRG neurons were imaged by phase contrast and the viability of cells was assessed by Trypan blue. Primary DRG neurons were cultured, fixed in 4% paraformaldehyde, and immunofluorescence was performed using a mouse anti-βIII-tubulin primary antibody (Promega, Madison, WI, USA; cat #G7121, 1:250) and then with Alexa Fluor-488 anti-mouse antibody (Life Technologies, Carlsbad, CA, USA) as secondary antibody. DRG neurons were imaged at 20× and 40× manually, and the longest neurite length per cell was measured in 11 images from multiple wells and separate experiments. Approximately 222 and 144 neurons were measured in SP16 and control groups, respectively. Quantification was performed in a blinded manner. For all neurite outgrowth measurements, at least 6 individual experiments were performed in duplicate.

The subject of assay [2] is phospho-ERK1/2. The assay can be described thus: Cell signaling analysis in PC12 cells, immunoblot of phospho-ERK1/2. Type of assay: cell-based, rat. As to the method: (§1) Cell signaling analysis: Rat PC12 cells were purchased from ATCC (CRL-1721). PC12 cells were maintained in high glucose DMEM (Gibco, USA) containing 10% heat-inactivated FBS (Gibco, USA), 5% HyClone heat-inactivated horse serum (Cytiva, USA), penicillin (100 units/ml) and streptomycin ([…]) in 6-well plates that were pre-coated with 0.01 mg/ml type IV collagen (Sigma-Aldrich, St. Louis, MO, USA). Cells were transferred to serum-free medium (SFM) 4 h prior to adding effectors, and then treated with SP163M (2.4, 24 or 240 nM); EI-tPA (12 nM), NGF (0.36 nM), or vehicle (PBS) for 10 min. In some cases, cells were pre-incubated with the competitive antagonist of LRP1, GST-RAP (150 nM) for 15 min or electroporated using the Rat Neuron Nucleofector Amaxa Kit (Lonza Biosciences) and incubated with siRNA to silence LRP1 expression (siLRP1; M-094191-01-0010, Dharmacon) for 48 h. Control cells were transfected with non-targeting control (NTC) siRNA (NTC; D-001810-10-05, Dharmacon). […] Equal amounts of protein from cell lysates (20 μg), as determined by BCA Protein Assay (ThermoFisher Scientific, Waltham, MA, USA), were subjected to 10% SDS-PAGE and electro-transferred to nitrocellulose membranes. […]

For assay [3], the system named is phospho-Akt. The assay can be described thus: Cell signaling analysis in PC12 cells, immunoblot of phospho-Akt. Type of assay: cell-based, rat. As to conditions: SP163M 24 or 240 nM, RAP 150 nM pretreatment 15 min. As to the method: as §1
On the technique in general: A western blot detects proteins with antibodies after separation by electrophoresis.

In assay [4] the test system is capsaicin induced acute pain-related behavior in mice. The assay can be described thus: Intraplantar capsaicin model of acute nociception. As to conditions: male mice; SP163M 2 μg/g s.c. or EI-tPA 2 μg/g i.v. 1 h before capsaicin. Type of assay: in vivo, mouse. As to the method:
For the capsaicin studies, male (n=41) and female (n=37) mice were acclimated to the behavior testing facility for at least 1 h. Capsaicin was dissolved in 20% (2-hydroxypropyl)-β-cyclodextrin (Sigma-Aldrich, St. Louis, MO, USA) solution. […] Subsequently, 10 μl of 2 μg/μl capsaicin solution was injected into the plantar area of left hind paw. Immediately after capsaicin injection, mice were placed in a plexiglass box. Two observers, blinded to treatments, recorded the time spent licking and flinching the left hind paw over 10 min.

In assay [5] the test system is esophageal eosinophilia in Balb/C mice. Description: Model of eosinophilic esophagitis using A. alternata as allergen, anti-MBP staining of esophageal sections. Type of assay: in vivo, mouse. As to conditions: twice weekly over 4 weeks, 8 treatments; vs vehicle and vs A1AT at a higher dose. The text has this:
Balb/C mice were repeatedly challenged with a series of the allergen A. alternata over 4 weeks. A. alternata is a common airborne mold associated with eosinophilic inflammation and a variety of allergic diseases, such as rhinitis, asthma and dermatitis, and is an established model that induces allergic reaction at the esophagus. In this model, the allergen challenges lead to an increase in esophageal eosinophilia. SP163M, A1AT or vehicle (control) was given twice weekly over the 4-week period for 8 total treatments. At the end of the study, esophageal sections were stained for the detection of MBP (eosinophilic marker) and quantitated per high power field.

Take `CCCC[C@H](NC(=O)[C@H](CC(C)C)NC(=O)[C@H](Cc1ccccc1)NC(=O)[C@@H](NC(=O)[C@H](Cc1ccccc1)NC(=O)[C@@H]1CCCN1C(=O)[C@H](CCCCN)NC(=O)[C@H](CC(N)=O)NC(=O)[C@H](Cc1ccccc1)NC(=O)[C@H](CCCCN)NC(=O)[C@@H](NC(C)=O)C(C)C)C(C)C)C(=O)N[C@H](C(=O)N[C@@H](CCC(=O)O)C(=O)N[C@@H](CCC(N)=O)C(=O)N[C@@H](CC(N)=O)C(=O)N[C@H](C(=O)N[C@@H](CCCCN)C(N)=O)[C@@H](C)O)[C@@H](C)CC` [SP163M, Ac-VKFNKPFVFLNIeIEQNTK-NH2]: the “longest neurite (maximum neurite length)” value in assay [1] (240 nM, 54 h, vs control) was “significantly neurotrophic”. In assay [1] (240 nM, after 54 h, vs vehicle), the “sprouting (βIII-tubulin immunofluorescence)” value was “showed significant levels of sprouting that included increases in both branching and length”. For the same molecule, the “neuronal survival and neurite sprouting (phase contrast images)” value in assay [1] (within 48 h, vs untreated controls) is “induced greater neuronal survival and neurite sprouting compared to untreated controls”. Also, the “activation of ERK1/2 in cells transfected with LRP1-specific siRNA” value in assay [2] (48 h after transfection) is reported as “ERK1/2 was not activated”. The “activation of phospho-ERK1/2 after 10 min, with or without RAP” value in assay [2] (SP163M 24 or 240 nM, NGF 0.36 nM, RAP 150 nM pretreatment 15 min) was “activated Akt and EKR1/2 in PC12 cells after 10 min that was blocked by the addition of the 39 kDa LRP1 antagonist, RAP”. Also, the “activation of phospho-Akt after 10 min, with or without RAP” value in assay [3] is “activated Akt and EKR1/2 in PC12 cells after 10 min that was blocked by the addition of the 39 kDa LRP1 antagonist, RAP”. For the same molecule, the “capsaicin induced acute pain-related behavior (time spent licking over 10 min)” value in assay [4] is on record as “blocked the capsaicin induced acute pain-related behavior”. Further, the “number of eosinophils that infiltrated to the esophagus (per high power field)” value in assay [5] is recorded as “decreased the number of eosinophils that infiltrated to the esophagus”.

These data come from US20250161419A1, “SERPIN PEPTIDES AND METHODS OF USING THE SAME” (SERPIN PHARMA, LLC, priority 2022, published 2025).
